Experimental findings from article PMC5658359, “A potent small-molecule inhibitor of the DCN1-UBC12 interaction that selectively blocks cullin 3 neddylation” (Nature Communications, 2017) are described below.

Protein sequences, listed by entry. Tags and fused reporters are not part of them. Residues count along the entry.
UniProt Q96GG9, 58-259: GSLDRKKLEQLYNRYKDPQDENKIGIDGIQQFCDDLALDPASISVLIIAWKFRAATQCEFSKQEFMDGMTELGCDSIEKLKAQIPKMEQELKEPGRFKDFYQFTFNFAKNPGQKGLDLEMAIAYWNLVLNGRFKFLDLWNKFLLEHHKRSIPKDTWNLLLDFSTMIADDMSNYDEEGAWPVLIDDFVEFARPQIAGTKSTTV

The target in the experiment is DCN1 (Homo sapiens, UniProt Q96GG9). The experiment in a line: Competitive fluorescence polarization (FP) binding assay with probe 46, DCN1. Further details: Human DCN1 (residues 58–259) were cloned into a pDEST17 plasmid containing an N-terminal His6 tag; made in house; host or cells: Rosetta2 cells (E. coli). Particulars: probe 46 5 nM, DCN1 50 nM. Here is the method:
The FP competitive binding experiments were performed to determine the binding affinities of all synthesized DCN1 inhibitors. […] Serial dilutions of DCN1 or DCN2 protein were mixed with the probe (46) to a final volume of 200 μl in the assay buffer (100 mM phosphate buffer, pH = 6.5, with 0.02% Tween-20 and 2% DMSO). The final probe concentration was 5 nM in both DCN1 and DCN2 assays. Plates were incubated at room temperature for 30 min with gentle shaking for equilibrium.
The IC50 and Ki values of compounds were determined in competitive binding experiments. Mixtures of compounds in DMSO (4 μl) and of pre-incubated protein/probe complex solution (196 μl) in the assay buffer were added into assay plates that were incubated at room temperature for 30 min with gentle shaking. Final concentrations of DCN1 protein and fluorescent probe (46) were 50 and 5 nM, respectively. […] FP values were measured as described above. IC50 values were determined by nonlinear regression fitting of the competition curves using the dose response inhibition equation (four parameters, variable slopes) included in the Prism/GraphPad software. K i values were calculated using the methods described earlier.

Molecules are shown by their SMILES.

For the molecule `CCC(=O)NC(Cc1nc2ccc(C(C)C)cc2s1)C(=O)NC(CNC(=O)C1CCN(CCOCCOCCOCCNC(=O)CCCCC2SCC3NC(=O)NC32)CC1)C1CCCCC1` (stereo not shown) [compound 47], the Ki (as a rule, the dissociation constant of the complex between target and ligand, obtained from inhibition or displacement) stood at 4 nM.
